Ab-91 heavy chain CDR variants: yeast mating affinities

From the AlphaSeq antibody data of Engelhart et al. 2022 (doi:10.1038/s41597-022-01779-4), copy in the FLAb collection.

Antigen: PDVDLGDISGINAS, a 14-residue peptide of the SARS-CoV-2 spike HR2 region.

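The starting antibody came from a phage panning campaign against this peptide. AAYL51 was designed without a model: most single CDR substitutions and a random sample of double and triple ones. In AlphaSeq, yeast of one mating type display the scFv and yeast of the other type display the target. Pairs that bind mate more often; barcode pairs of the diploids are counted by sequencing. Scores were corrected for input abundance and mapped to Kd with protein pairs of known affinity run in the same pool. The assay was run in three technical replicates.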

The variants keep the light chain, the linker and the frameworks of Ab-91 (scFv order VL, three GGGGS repeats, VH).
VL: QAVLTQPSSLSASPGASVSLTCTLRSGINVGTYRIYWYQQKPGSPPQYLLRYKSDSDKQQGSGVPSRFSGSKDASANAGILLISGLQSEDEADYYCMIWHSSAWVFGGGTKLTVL
VH: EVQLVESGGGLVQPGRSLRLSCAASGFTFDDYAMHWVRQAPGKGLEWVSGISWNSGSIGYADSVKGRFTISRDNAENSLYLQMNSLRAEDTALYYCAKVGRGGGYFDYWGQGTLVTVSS

Substitutions are numbered in sequence along the VH above, starting at 1 (not Kabat). All variants listed here change I51 of the VH, counted from its first residue. Scale: log10 of Kd in nM, estimated from mating counts; low values are strong binders. "ND" means that the variant was in the library but no mating with the target was seen in that replicate; the authors take this as a sign of poor binding, and no number exists. Empty control strains, which show no peptide, gave a signal in 21% of pairings with library AAYL51; the median was 4.54 and 95% of these signals were weaker than 3.26. No background was subtracted.

Variant I51L+S52W+D107I showed 3.71, 5.10, ND. Variant G50N+I51W+S55F gave ND, ND, ND. Variant I51E+G103E+Y105T gave 3.70, ND, ND. With I51F+S57A+A61G the result was ND, ND, ND. Variant G50S+I51F+G56H gave 3.38, ND, ND. With I51A+V99W+R101I the result was 4.72, ND, ND.

Variant I51Q+S52A+W53R gave ND, ND, 5.07. Variant A33I+I51N+S55K showed ND, ND, ND. Variant G26L+I51M+S55R gave ND, ND, ND. With I51T+D62L+V64E the result was ND, ND, ND. For I51Y+A61Y, the assay gave 4.04, 4.09, ND. With Y32T+I51A+G103P the result was ND, ND, ND.